Where two headings read alike, the source gives them in different places.
Assays:
p70S6K human enzyme = p70S6K human enzyme (Homo sapiens, UniProt P23443, T412E); test: p70S6K inhibition assay (IMAP FP); assay type: biochemical;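 further: kinase reaction run at room temperature, phosphorylated substrate captured on IMAP beads and read as fluorescence polarization in mP, IC50 then converted to Ki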
Akt3 human enzyme = Akt3 human enzyme (Homo sapiens, UniProt Q9Y243); test: Akt3 inhibition assay (IMAP FP); assay type: biochemical;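 further: kinase reaction run 60 min at room temperature after 30 µM ATP start, phosphorylated substrate captured on IMAP beads and read as fluorescence polarization (mP)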

Amino acid sequences for entries named in this document (tags omitted). Residues count along the entry.
UniProt P23443, 1-421 T412E limits assumed: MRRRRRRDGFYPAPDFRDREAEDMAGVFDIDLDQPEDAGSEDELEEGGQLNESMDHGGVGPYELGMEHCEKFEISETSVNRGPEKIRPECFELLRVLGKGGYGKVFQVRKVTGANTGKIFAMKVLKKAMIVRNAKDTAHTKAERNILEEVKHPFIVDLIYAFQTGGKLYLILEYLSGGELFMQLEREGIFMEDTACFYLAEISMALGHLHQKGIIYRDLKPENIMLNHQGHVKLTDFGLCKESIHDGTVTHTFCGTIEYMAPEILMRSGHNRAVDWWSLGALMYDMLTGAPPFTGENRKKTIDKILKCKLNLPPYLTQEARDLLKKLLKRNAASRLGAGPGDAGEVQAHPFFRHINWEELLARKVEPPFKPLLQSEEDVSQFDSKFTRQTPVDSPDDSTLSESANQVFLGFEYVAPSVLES
UniProt Q9Y243, whole entry: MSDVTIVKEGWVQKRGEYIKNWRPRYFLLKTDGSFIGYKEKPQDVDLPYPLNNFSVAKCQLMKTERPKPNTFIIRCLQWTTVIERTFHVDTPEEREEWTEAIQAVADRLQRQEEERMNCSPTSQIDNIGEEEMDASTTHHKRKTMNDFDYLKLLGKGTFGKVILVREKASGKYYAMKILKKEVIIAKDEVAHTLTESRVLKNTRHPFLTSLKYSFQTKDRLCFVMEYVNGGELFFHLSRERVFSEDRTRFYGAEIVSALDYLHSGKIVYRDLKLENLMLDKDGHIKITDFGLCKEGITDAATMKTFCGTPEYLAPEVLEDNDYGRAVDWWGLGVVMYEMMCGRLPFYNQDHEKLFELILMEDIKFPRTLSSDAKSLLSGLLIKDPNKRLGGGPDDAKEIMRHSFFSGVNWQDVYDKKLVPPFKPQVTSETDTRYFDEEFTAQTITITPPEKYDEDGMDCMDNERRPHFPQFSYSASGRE

Question: Which Ki (p70S6K human enzyme; read-out: p70S6K Ki, Avg, 30 μM ATP, Ki=IC50/(1+([ATP Challenge]/EC50 ATP))) does the source give for `CCc1ccc(CN2CCC[C@@H](Nc3ccc4[nH]ncc4c3)C2)cc1` [Compound 1.136, (R)-N-(1-(4-ethylbenzyl)piperidin-3-yl)-1H-indazol-5-amine] here?
Answer: The Ki was 589 nM.

Question: What about the Ki (p70S6K human enzyme; read-out: p70S6K Ki, average Ki) of the same compound?
Answer: Its Ki is 589 nM.

Question: What about the Ki (Akt3 human enzyme; read-out: Akt3 Ki, Avg, 30 μM ATP, Ki=IC50/(1+([ATP Challenge]/EC50 ATP))) of the same compound?
Answer: Its Ki is 444 nM.

Question: What about the Ki (Akt3 human enzyme; read-out: Akt3 Ki, average Ki) of the same compound?
Answer: Its Ki is 444 nM.
